Measured values taken from publication PMC5242521, “Inhibition of Human Drug Transporter Activities by the Pyrethroid Pesticides Allethrin and Tetramethrin” (PLoS ONE, 2017).

Protein sequences, listed by entry. Tags and fused reporters are not part of them. Lines headed by an entry give the natural chain unless they say otherwise; changes in a name come on top.
UniProt O94956: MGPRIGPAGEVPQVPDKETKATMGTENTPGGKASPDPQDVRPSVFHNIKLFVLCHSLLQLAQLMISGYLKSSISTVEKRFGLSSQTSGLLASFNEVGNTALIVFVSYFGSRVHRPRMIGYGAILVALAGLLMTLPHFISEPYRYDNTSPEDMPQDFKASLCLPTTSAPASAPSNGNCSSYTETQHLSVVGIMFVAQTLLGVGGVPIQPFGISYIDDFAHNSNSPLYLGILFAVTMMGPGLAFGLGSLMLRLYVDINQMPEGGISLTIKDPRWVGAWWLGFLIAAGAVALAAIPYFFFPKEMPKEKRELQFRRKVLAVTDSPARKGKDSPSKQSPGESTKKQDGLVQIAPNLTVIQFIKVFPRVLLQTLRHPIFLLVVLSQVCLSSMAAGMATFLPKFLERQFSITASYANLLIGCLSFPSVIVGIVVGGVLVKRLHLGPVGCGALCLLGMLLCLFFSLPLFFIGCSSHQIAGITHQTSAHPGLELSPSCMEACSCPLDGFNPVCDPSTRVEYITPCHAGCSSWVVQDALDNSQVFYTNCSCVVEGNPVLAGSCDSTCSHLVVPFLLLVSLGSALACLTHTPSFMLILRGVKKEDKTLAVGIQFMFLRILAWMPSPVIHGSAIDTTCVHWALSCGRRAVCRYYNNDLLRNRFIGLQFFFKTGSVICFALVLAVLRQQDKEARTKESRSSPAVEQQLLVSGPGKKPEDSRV

Columns and labels:
MATE2-K = biological target: T1, MATE2-K (Homo sapiens, UniProt Q86VL8); experiment: MATE2-K activity: TEA accumulation in HEK-MATE2-K cells; assay type: cell-based; settings: pyrethroid up to 100 μM
T1 construct: expressed in transfected cells; host or cells: HEK293
T1 sequence (Q86VL8 1-566 isoform Q86VL8-3): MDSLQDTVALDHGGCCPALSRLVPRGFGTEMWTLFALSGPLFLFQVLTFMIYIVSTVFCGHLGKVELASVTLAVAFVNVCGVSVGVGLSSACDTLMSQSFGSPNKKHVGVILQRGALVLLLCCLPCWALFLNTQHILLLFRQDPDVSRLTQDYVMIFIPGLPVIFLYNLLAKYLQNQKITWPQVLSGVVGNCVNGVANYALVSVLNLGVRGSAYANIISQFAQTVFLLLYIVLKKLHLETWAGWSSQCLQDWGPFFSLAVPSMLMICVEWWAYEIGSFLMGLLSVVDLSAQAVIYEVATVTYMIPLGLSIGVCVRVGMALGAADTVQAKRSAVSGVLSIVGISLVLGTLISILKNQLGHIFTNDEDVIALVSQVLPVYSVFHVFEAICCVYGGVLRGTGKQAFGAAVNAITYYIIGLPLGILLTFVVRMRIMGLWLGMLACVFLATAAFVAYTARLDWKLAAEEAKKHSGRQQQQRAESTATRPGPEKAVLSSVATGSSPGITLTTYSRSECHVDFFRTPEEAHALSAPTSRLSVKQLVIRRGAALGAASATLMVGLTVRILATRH

OCT1 [1] = biological target: T2, OCT1 (Homo sapiens, UniProt O15245); experiment: Dopamine accumulation in OCT1-transfected HEK293 cells; assay type: cell-based; settings: pyrethroid 10, 100 or 300 μM; 11 nM dopamine, 5 min
T2 sequence (O15245 1-554): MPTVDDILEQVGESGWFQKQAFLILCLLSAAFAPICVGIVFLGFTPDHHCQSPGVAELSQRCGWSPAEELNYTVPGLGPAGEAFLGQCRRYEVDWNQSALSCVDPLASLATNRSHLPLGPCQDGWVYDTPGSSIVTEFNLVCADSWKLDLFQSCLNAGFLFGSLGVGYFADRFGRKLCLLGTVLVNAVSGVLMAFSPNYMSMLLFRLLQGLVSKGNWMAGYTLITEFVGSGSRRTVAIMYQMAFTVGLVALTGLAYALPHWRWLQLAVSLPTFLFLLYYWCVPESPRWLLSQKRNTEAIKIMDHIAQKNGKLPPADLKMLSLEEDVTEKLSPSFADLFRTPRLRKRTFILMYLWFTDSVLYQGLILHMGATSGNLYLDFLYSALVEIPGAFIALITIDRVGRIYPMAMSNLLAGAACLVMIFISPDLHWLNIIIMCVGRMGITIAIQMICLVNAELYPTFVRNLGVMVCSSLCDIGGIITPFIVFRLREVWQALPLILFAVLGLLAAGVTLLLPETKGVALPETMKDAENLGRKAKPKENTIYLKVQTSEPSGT
Description: HEK-MOCK and HEK-OCT1 cells were incubated with transport assay medium containing 11 nM 3,4-[Ring-2,5,6-^3H]-dopamine, in the absence or presence of the reference OCT1 inhibitor verapamil or of pyrethroids for 5 min at 37°C in the transport assay medium described above. After washing twice with PBS, cells were lysed in distilled water and intracellular accumulation of dopamine was finally measured by scintillation counting.
(A) HEK-OCT1 and HEK-MOCK cells were incubated with 11 nM 3,4-[Ring-2,5,6-^3H]-dopamine in the absence or presence of the reference OCT1 inhibitor verapamil (100 μM) for 5 min at 37°C. Intracellular accumulation of 3,4-[Ring-2,5,6-^3H]-dopamine was then determined by scintillation counting. […] Intracellular accumulation of 3,4-[Ring-2,5,6-^3H]-dopamine was then determined by scintillation counting. Data are expressed as percentages of OCT1-mediated transport of dopamine in control pyrethroid-unexposed cells, determined by subtracting accumulation of dopamine in HEK-MOCK cells from that in HEK-OCT1 cells in the absence of pyrethroids, arbitrarily set at 100% and indicated by a dotted line on the graph.

OAT1 = biological target: T3, OAT1 (Homo sapiens, UniProt Q4U2R8); experiment: OAT1 activity: fluorescein accumulation in HEK-OAT1 cells; assay type: cell-based; settings: pyrethroid up to 100 μM
T3 construct: host or cells: HEK293
T3 sequence (Q4U2R8 1-563): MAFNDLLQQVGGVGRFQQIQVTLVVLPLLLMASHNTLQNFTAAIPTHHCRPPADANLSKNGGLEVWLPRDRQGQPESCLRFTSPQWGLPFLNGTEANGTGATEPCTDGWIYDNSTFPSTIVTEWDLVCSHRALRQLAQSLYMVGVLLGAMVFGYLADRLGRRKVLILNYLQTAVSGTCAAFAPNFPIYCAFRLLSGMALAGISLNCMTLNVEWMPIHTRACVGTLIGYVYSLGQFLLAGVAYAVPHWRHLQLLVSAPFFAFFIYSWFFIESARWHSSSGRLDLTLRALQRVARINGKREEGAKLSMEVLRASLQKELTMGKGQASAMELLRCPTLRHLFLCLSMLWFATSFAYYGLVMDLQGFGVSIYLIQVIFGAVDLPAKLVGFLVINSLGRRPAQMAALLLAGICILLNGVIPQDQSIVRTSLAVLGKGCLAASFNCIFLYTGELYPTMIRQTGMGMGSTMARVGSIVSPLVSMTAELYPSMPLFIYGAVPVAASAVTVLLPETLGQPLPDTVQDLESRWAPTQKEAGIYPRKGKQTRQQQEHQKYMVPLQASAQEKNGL

OATP2B1 = OATP2B1 (Homo sapiens, UniProt O94956); experiment: OATP2B1 activity: E3S accumulation in HEK-OATP2B1 cells; settings: pyrethroid 100 μM
Description: (§1) The effects of pyrethroids on activity of ABC and SLC transporters were determined through measuring cellular accumulation or retention of fluorescent or radiolabeled reference substrates for transporters, in the presence or absence of reference inhibitors, as previously described. The nature of cells and reference substrates and inhibitors used for transport assays are summarized in S3 Table.
(§2) The nature of substrates and reference inhibitors and the incubation times with substrates, that varied according to the transporter, were selected in agreement with previous studies and are indicated in S3 Table. The total incubation volume with substrates was 200 μL/well. […] An aliquot of cell lysate (5 μL) was then taken for determining cellular protein content by the Bradford method.
(§3) Intracellular concentrations of reference substrates were initially expressed as fluorescence arbitrary units (for fluorescent dye substrates) or as moles (for radiolabeled substrates) and normalized to cellular protein content, determined by the Bradford method. […]
(§4) The initial tested concentration of pyrethroids was 100 μM. […] Such concentrations were calculated using GraphPad Prism software (GraphPad Software, La Jolla, CA), through nonlinear regression based on the four parameter logistic function using the following equations: […]

OCT1 [2] = biological target: T2, OCT1; experiment: OCT1 activity: DAPI accumulation in HEK-OCT1 cells; settings: pyrethroid 10 μM
Description: as §1, §2, §3, §4

OCT1 [3] = biological target: T2, OCT1; experiment: Cis-inhibition of OCT1-mediated TEA accumulation in HEK-OCT1 cells; assay type: cell-based; settings: pyrethroid 100 μM; 29 μM [14C]-TEA, 5 min
Description: Intracellular accumulation of TEA was then determined by scintillation counting. […] After washing, cells were next re-incubated with 29 μM [1-^14C]-TEA for 5 min at 37°C. Intracellular accumulation of [1-^14C]-TEA was then determined by scintillation counting.

Structure (SMILES): CC(C)=CC1C(C(=O)OCN2C(=O)C3=C(CCCC3)C2=O)C1(C)C (stereo not drawn) [tetramethrin]
- effect on MATE2-K activity (MATE2-K): failed to alter
- effect on OCT1-mediated transport of dopamine (OCT1 [1]): decreased it, but only when used at 100 or 300 μM
- effect on OAT1 activity (OAT1): failed to alter
- effect on OATP2B1 activity (OATP2B1): cis-stimulated
- reduction of OCT1-mediated DAPI accumulation (OCT1 [2]): 66.4%
- cis-effect on TEA accumulation in HEK-OCT1 cells (OCT1 [3]): markedly cis-inhibit
